BindingDB's records for PubMed 10991998 (Wake Forest University, 2000)
Where “and” joins values, the source holds several entries; their conditions need not be identical. Equal values may be shown once.

The chains behind the UniProt entries cited, without tags or fusion partners.
UniProt P20272, whole entry: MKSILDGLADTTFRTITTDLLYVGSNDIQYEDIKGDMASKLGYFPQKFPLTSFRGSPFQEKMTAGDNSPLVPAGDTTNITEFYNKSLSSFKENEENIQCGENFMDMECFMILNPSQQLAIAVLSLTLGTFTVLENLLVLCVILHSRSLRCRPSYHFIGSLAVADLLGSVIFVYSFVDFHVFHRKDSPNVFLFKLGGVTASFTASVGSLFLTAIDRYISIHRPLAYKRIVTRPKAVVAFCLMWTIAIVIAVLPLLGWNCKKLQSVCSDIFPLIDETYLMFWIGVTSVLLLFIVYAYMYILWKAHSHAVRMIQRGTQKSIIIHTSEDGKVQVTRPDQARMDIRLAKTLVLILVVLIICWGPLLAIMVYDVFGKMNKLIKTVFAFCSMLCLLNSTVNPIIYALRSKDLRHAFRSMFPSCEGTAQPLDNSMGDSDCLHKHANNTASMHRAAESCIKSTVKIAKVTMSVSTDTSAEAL

Molecular target: Cannabinoid receptor 1 (Rattus norvegicus, UniProt P20272)

CCCCC/C=C\C/C=C\C/C=C\C/C=C\CCCC(=O)NC(C)CO (stereo unspecified)
Ki: 155 nM and 630 nM and 1100 nM and 1000 nM and 330 nM and 150 nM and 240 nM
